# Source: article PMC6256756, “Competitive Fitness of Essential Gene Knockdowns Reveals a Broad-Spectrum Antibacterial Inhibitor of the Cell Division Protein FtsZ” (Antimicrobial Agents and Chemotherapy, 2018)
# Molecular target: T1, FtsZ (BcFtsZ) (Burkholderia cenocepacia, UniProt B4E5Y7)
# T1 sequence (B4E5Y7 1-398): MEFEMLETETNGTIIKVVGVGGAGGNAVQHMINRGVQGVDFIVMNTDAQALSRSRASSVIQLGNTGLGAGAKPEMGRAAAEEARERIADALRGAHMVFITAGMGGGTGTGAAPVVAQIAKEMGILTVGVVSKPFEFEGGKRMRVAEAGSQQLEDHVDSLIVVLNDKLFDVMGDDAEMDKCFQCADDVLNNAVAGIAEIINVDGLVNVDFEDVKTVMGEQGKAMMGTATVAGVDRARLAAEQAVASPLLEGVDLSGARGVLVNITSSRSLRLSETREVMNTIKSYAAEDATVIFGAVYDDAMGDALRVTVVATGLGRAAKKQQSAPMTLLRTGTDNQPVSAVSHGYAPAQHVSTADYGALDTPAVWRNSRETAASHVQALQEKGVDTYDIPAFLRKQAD
# Assay: biochemical
structure (smiles),measurement,value
"COC(=O)CSc1ccc2nsnc2c1[N+](=O)[O-] [C109, methyl [(4-nitro-2,1,3-benzothiadiazol-5-yl)thio]acetate]",IC50,8.2 ± 1.3 µM
